Experimental findings from publication PMC7335050, “Characterization of an alternative BAK-binding site for BH3 peptides” (Nature Communications, 2020) are described below.

In assay [1] the test system is Bak in mitochondria from Bax−/− MEFs. Put plainly: Cytochrome c release from mitochondria of Bax−/− MEFs. The assay is classed as biochemical, mouse. The settings on record: 90 min at 25 °C, immunoblotting of supernatants and pellets; 10 μM highest concentration tested. The method, then: Mitochondria[43] purified from Bax^−/− MEFs were incubated with the indicated concentrations of navitoclax, S63845 or BH3 peptides at 25 °C for 90 min. After centrifugation (10,000 g, 15 min) and washing, supernatants and pellets were analyzed by immunoblotting. Alternatively, His6-BAKΔTM was dialyzed against mitochondria (mito) buffer (150 mM KCl, 5 mM MgCl2, 1 mM EGTA, 25 mM HEPES, pH 7.5) and diluted into mito buffer with 5 mM DTT. Mitochondria purified from Bak^−/−Bax^−/− MEFs were then incubated with 2 μM His6-BAKΔTM and the indicated BH3 peptides (5 μM) at 25 °C for 90 min. After centrifugation (10,000 × g, 15 min) and washing, supernatants and pellets were analyzed by immunoblotting.
On the technique in general: In western blotting, separated proteins are transferred to a membrane and probed.

Assay [2] has as its target T1, BAKΔTM (Homo sapiens, UniProt Q16611).
T1 construct: BAKΔTM (GenBank BC004431, residues 1–186); His6; made in house; host or cells: E. coli BL21
T1 sequence (Q16611 1-186): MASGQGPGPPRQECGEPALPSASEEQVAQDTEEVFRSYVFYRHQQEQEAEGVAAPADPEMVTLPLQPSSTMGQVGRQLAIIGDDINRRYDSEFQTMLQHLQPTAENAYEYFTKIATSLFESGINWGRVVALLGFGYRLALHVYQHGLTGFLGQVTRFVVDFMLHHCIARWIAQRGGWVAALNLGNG
Put plainly: SPR binding of BH3 peptides to immobilized BAKΔTM. The following applies: 25 °C. On the technique in general: In SPR one partner is held on a chip, and binding of the other changes the refractive index at the surface.

The subject of assay [3] is BAK (His6-BAKΔTM). Put plainly: Liposome permeabilization assay (FITC-dextran release) with BAK. The assay is classed as biochemical, human. The following applies: 50 nM BAK + 50 nM BH3 peptide. The method, then:
1-Palmitoyl-2-oleoyl-sn-glycero-3-phosphocholine, 1-plamitoyl-2-oleoyl-sn-glycero-3-phosphoethanolamine, L-α-phosphatidyl-inositol, cardiolipin, cholesterol and 18:1 DGS-NTA(Ni) were mixed at a weight ratio of 36:22:9:8:20:5, and dried as thin films in glass test tubes under nitrogen for 16 h. To encapsulate FITC-labeled dextran 10 (F-d10), 50 mg F-d10 was added to 50 mg lipid in 1 ml of 150 KCl buffer containing 20 mM HEPES (pH 7.0), sonicated and extruded 15 times through a 400 nm polycarbonate membrane. Liposomes with F-d10 were further purified by gel filtration on Sephacryl S-300 HR (GE Healthcare). Phosphate was determined by colorimetric assay (Abcam, Cambridge, UK).
Release of F-d10 from large unilamellar vesicles (LUVs) was monitored by fluorescence dequenching[25] using a fluorimetric plate reader (Thermo Scientific) with SoftMax Pro software. After addition of purified His6-BAKΔTM and/or the BH3 peptides to LUVs (final lipid concentration 10 µg ml^−1), 96 well plates were incubated at 37 °C and recorded (excitation 485 nm, emission 538 nm) every 10 sec. FITC-labeled dextran release was calculated using the equation ((Fsample − Fblank)/(FTriton − Fblank) × 100%), where Fsample, Fblank, and FTriton are the fluorescence recorded for the reagent-, buffer-, and 1% Triton-treated LUVs, respectively.

Regarding `CSCC[C@H](NC(=O)[C@H](CCCNC(=N)N)NC(=O)[C@H](CCCNC(=N)N)NC(=O)[C@H](CC(C)C)NC(=O)[C@H](CCC(=O)O)NC(=O)[C@H](CCCNC(=N)N)NC(=O)CNC(=O)[C@H](Cc1ccc(O)cc1)NC(=O)[C@H](CCCNC(=N)N)NC(=O)[C@H](CCC(N)=O)NC(=O)[C@H](C)NC(=O)[C@H](C)NC(=O)[C@@H](N)Cc1c[nH]c2ccccc12)C(=O)N[C@@H](CO)C(=O)N[C@@H](CC(=O)O)C(=O)N[C@@H](CCC(=O)O)C(=O)N[C@@H](Cc1ccccc1)C(=O)N[C@H](C(=O)N[C@@H](CC(=O)O)C(=O)N[C@@H](CO)C(=O)N[C@@H](Cc1ccccc1)C(=O)N[C@@H](CCCCN)C(=O)N[C@@H](CCCCN)C(=O)NCC(=O)N[C@@H](CC(C)C)C(=O)N1CCC[C@H]1C(=O)O)C(C)C` [BAD BH3, reference compound], in assay [1], the “Concentration that induced cytochrome c release” value is over 10 µM. Moreover, the Kd in assay [2] (BAKΔTM immobilized on CM5 chip, steady-state analysis, three independent SPR assays, top concentrations not threefold above KD, read-out: Approximate dissociation constant ranges, KDs for BAK) is over 10 µM. For the same molecule, the “Binding to BAKΔTM by SPR, in words” value in assay [2] (immobilized BAKΔTM) was “much lower affinity”. For the same molecule, the “Increase of BAK-mediated liposome release, in words” value in assay [3] is given as “did not appreciably increase”.
